Laboratory results published in patent publication US8816047B2 (Cure DM Group Holdings, LLC, priority 2007, dated 2014).
Like-named read-outs stand apart in the source and are kept apart here.

Assay: Pharmacokinetics of HIP delivered intramuscularly and subcutaneously in rats (ELISA)
Type: in vivo, rat
Procedure: The following example illustrates the pharmacokinetics of the intramuscular and subcutaneous administration of HIP1, which is cleaved into HIP2.
The pharmacokinetics of HIP delivery with 20 rats with 5 rats per route of administration was evaluated. Similar to hamster-derived INGAP findings, the intramuscular (IM) route provided a better blood concentration of the material, but half-life determinations were under 30 minutes by ELISA measurements, as shown in FIG. 6.

CC[C@H](C)[C@H](NC(=O)[C@@H](N)Cc1c[nH]c2ccccc12)C(=O)NCC(=O)N[C@@H](CC(C)C)C(=O)N[C@@H](Cc1c[nH]cn1)C(=O)N[C@@H](CC(=O)O)C(=O)N1CCC[C@H]1C(=O)N[C@H](C(=O)N[C@@H](CCC(N)=O)C(=O)NCC(=O)N[C@H](C(=O)N[C@@H](CCC(=O)O)C(=O)N1CCC[C@H]1C(=O)N[C@@H](CC(N)=O)C(=O)NCC(=O)O)[C@@H](C)O)[C@@H](C)O [HIP]
half-life (rat, in vivo, im, intramuscular, read-out: half-life): < 30 min
half-life (subcutaneous versus intramuscular): slightly longer half-life
